For this test, the system named is Plasmodium falciparum NF54/iGP1_RE9H ulg8 stage V gametocytes. Briefly: gametocyte viability (luciferase signal relative to DMSO control) (% of DMSO control); higher = less gametocytocidal activity, active = 50 or less. The settings on record: exposure time: 72 h. The essentials: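 Gametocyte viability is reported relative to the average of DMSO vehicle wells on the same plate. The assay used day-12 stage V NF54/iGP1_RE9Hulg8 gametocytes at ~2.5% gametocytemia and 3% hematocrit, in 0.5% Albumax II medium, added to 96-well plates of compounds spotted in nanolitre volumes for final 10 µM or 1 µM, one well each. After 72 h at 37 °C, 90 µl was mixed with 10 µl D-luciferin (30 mg/ml), and luminescence was recorded with an IVIS Lumina II.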

Only a part is listed here, and it is no random draw.

These results are taken from the supplement of paper PMC12297408.

With `COc1cc(Br)c(C[N+]2(CCOCCC3CCC4CC3C4(C)C)CCOCC2)cc1OC` (configuration not stated) [Pinaverium bromide], the gametocyte viability reads like this: (concentration: 1 µM) inactive: 74.1; (concentration: 10 µM) active: 28.1.
